Patent publication US20250312323A1 (Cavion, Inc., priority 2018, published 2025)

Test system: patients with essential tremor
Experiment: T-CALM: TETRAS performance subscale, investigator rated
Conditions: Day 15, N 39

## CC(C)c1ccc(CC(=O)N[C@H](C)c2ccc(OCC(F)(F)F)cn2)cc1 [CX-8998]
  Subjects with improvement of at least 5 points by TETRAS-PS score, number: 12
